Laboratory results: US6127337A, “Bivalent thrombin inhibitors” (National Research Council of Canada, priority 1993, dated 2000)

Conditions: given as the reason for not testing

## 2,4,6 triisopropylbenzensulfonyl-Arg (D-Pipecolic acid)-(12-aminododecanoicacid)-4-aminobutyric acid)-Asp-Phe-Glu-Pro-Ile-Pro-Tyr-OH [BCH-2444]
  solubility remark: insolubility

## tert-butylbezenesulfonyl-Arg (D-Pipecolic acid)-(12-aminododecanoic acid)-4-aminobutyric acid)-Asp-Phe-Glu-Pro-Ile-Pro-Tyr-OH [BCH-2741]
  solubility remark: insolubility
